According to publication PMC3814989, “Development of a Fluorescence Polarization Based High-Throughput Assay to Identify Casitas B-Lineage Lymphoma RING Domain Regulators” (PLoS ONE, 2013):
Several values for one entry are separate records, joined by “and”; a condition that tells them apart may be missing. Equal entries are not always repeated. Where two headings read alike, the source gives them in different places.

Target: T1, c-Cbl (RING) protein (Homo sapiens, UniProt P22681)
T1 construct: c-Cbl (RING) protein including the linker and RING domain (codon 358–457) was tagged with glutathione S-transferase (GST); GST; made in house
T1 sequence (P22681 358-457): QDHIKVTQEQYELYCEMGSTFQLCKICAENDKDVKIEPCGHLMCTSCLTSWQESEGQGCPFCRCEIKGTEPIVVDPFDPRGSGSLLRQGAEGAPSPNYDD
Assay: Competitive FP assay/screen: displacement of probe 1 from c-Cbl (RING) protein
Format: binding
Protocol: Assays were carried out in detergent-free buffer system (PBS, pH = 7.4) or detergent-present buffer system (0.01% Triton X-100 in PBS, pH = 7.4). All FP measurements were made on 384-well, low-volume, black, v-bottom polystyrene microplates (Corning, Shanghai, China) using the ZS-2 plate reader. The binding affinities of fluorescein-labeled peptides/regulators binding to c-Cbl (RING) protein were verified by titrating an increasing concentration of protein into a constant concentration of labeled peptides. The polarization values were measured at an excitation wavelength of 485 nm and an emission wavelength of 538 nm. The total fluorescence (TF) values were also measured. The change in polarization was graphed as a function of the log of the protein concentration, and the dissociation constant (Kd) and the change in mP (ΔmP) were obtained from the resulting sigmoidal curve. The concentrations of fluorescein-labeled peptide and proteins were optimized.
Unlabeled short peptide was titrated against the FITC-labeled peptide (100 nmol/L) and protein (3 µmol/L) mixture. Plates were incubated at room temperature for up to 3 hours or 30 min at different temperatures. FP values were taken and IC50 values, concentrations giving 50% inhibition of protein-protein interaction with respect to control, and dissociation constant (Kd) values were calculated.
Master mixtures containing fluorescein-labeled probe and Cbl (RING) protein Cbl (RING) protein, 3 µmol/L and probe 1 at 100 nmol/L) in a reaction volume of 19 µl were prepared and loaded to plates. The library compounds (10 µmol/L – 0.078 µmol/L, half dilutions) were prepared separately and transferred into the assay plates. The first and last columns of each plate were used as positive and negative control wells. Wells containing the drug only were used as controls to detect auto-fluorescence of the compounds in the total fluorescence assay. After subtraction of the background signal, data was processed and the IC50 values were determined by non-linear least square fitting (four parameters) using SigmaPlot 11.0.
Hits were validated using the primary screening assay conditions in triplicate.

[1] = IC50 Primary screen DF, primary screen, detergent-free system, 10 to 0.078 µmol/L, 5% DMSO
[2] = IC50 Primary screen DP, primary screen, detergent-present system (0.01% Triton X-100), 10 to 0.078 µmol/L, 5% DMSO
[3] = IC50 Validated DF, validated in triplicate, detergent-free system

Row | IC50 (IC50 Validated DP, validated in triplicate, detergent-present system (0.01% Triton X-100), NR: no dose response) | Compound | IC50 [1] | IC50 [2] | IC50 [3] | IC50 (read-out: IC50 Validated DP, validated in triplicate, detergent-present system (0.01% Triton X-100), NR: no dose response)
1 | 3.2 ± 0.9 µM | OC[C@H]1O[C@@H](O[C@@H]2OC=C[C@H]3[C@H](O)[C@@H]4O[C@]4(CO)[C@@H]23)[C@H](O)[C@@H](O)[C@@H]1O [Catalpol] | < 5 µM and 2.9 µM | 2.3 µM | 2.7 ± 0.6 µM | 
2 |  | O=c1c(O)c(-c2ccc(O)c(O)c2)oc2cc(O)cc(O)c12 [Quercetin] | < 5 µM and 4.2 µM | > 10 µM | 4 ± 0.6 µM | > 10 µM
